## Membrane permeability of cyclic peptides

Collected by the curators of CycPeptMPDB (Li et al. 2023) from Townsend et al. 2020, doi:10.26434/chemrxiv.13335941.v1.

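Lipid, pH, incubation time, direction and concentration are not recorded in the data file. Other peptides of the study may be missing here. Peptides that the database sets to -10, its floor, are left out.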

PAMPA is the parallel artificial membrane permeability assay, which has no cells and reads passive diffusion. Values are log10 P with P in cm/s, so -5 is more permeable than -7.

| structure (SMILES) | PAMPA (log10 cm/s) |
|---|---|
| CC(C)C[C@@H]1NC(=O)[C@H]2CCCN2C(=O)CN(Cc2ccccc2)C(=O)[C@@H](CC(C)C)N(C)C(=O)[C@@H](C)N(C)C(=O)[C@H]2CCCN2C(=O)[C@H](Cc2ccccc2)NC1=O | -6.15 |
| CC(C)C[C@@H]1NC(=O)[C@@H](C)NC(=O)[C@H](Cc2ccccc2)NC(=O)[C@@H](CC(C)C)NC(=O)[C@@H]2CCCN2C(=O)C[C@H](Cc2ccccc2)NC1=O | -6.86 |
| CC(C)C[C@@H]1NC(=O)C[C@H](Cc2ccccc2)NC(=O)[C@@H]2CCCN2C(=O)[C@H](Cc2ccccc2)NC(=O)[C@H](CC(C)C)N(C)C(=O)[C@@H]2CCCN2C(=O)[C@@H](CC(C)C)NC1=O | -5.39 |
| CC(C)C[C@@H]1NC(=O)[C@@H](CC(C)C)N(C)C(=O)[C@@H](C)NC(=O)[C@H](Cc2ccccc2)NC(=O)CN(Cc2ccccc2)C(=O)[C@@H]2CCCN2C1=O | -5.44 |
| CC(C)C[C@@H]1C(=O)N[C@@H](Cc2ccccc2)C(=O)N2CCC[C@@H]2C(=O)N[C@@H](Cc2ccccc2)CC(=O)N[C@H](CC(C)C)C(=O)N[C@@H](Cc2ccccc2)CC(=O)N2CCC[C@@H]2C(=O)N1C | -5.86 |
| CC(C)C[C@H]1NC(=O)C[C@H](Cc2ccccc2)NC(=O)[C@@H]2CCCN2C(=O)[C@H](Cc2ccccc2)NC(=O)CN(Cc2ccccc2)C(=O)[C@@H]2CCCN2C(=O)[C@@H](CC(C)C)NC1=O | -5.89 |
| CCCN1CC(=O)N(C)[C@@H](CC(C)C)C(=O)N(Cc2ccccc2)CC(=O)N2CCC[C@H]2C(=O)N(C)[C@@H](CC(C)C)C(=O)N[C@@H](Cc2ccccc2)C1=O | -4.93 |
| CC(C)C[C@@H]1C(=O)N2CCC[C@@H]2C(=O)N(Cc2ccccc2)CC(=O)N[C@@H](Cc2ccccc2)C(=O)N2CCC[C@H]2C(=O)N[C@@H](Cc2ccccc2)CC(=O)N[C@H](CC(C)C)C(=O)N1C | -5.83 |
| CCCN1CC(=O)N(C)[C@H](CC(C)C)C(=O)N(Cc2ccccc2)CC(=O)N2CCC[C@@H]2C(=O)N(C)[C@H](CC(C)C)C(=O)N[C@@H](Cc2ccccc2)C(=O)N2CCC[C@@H]2C1=O | -5.03 |
| CCCN1CC(=O)N(C)[C@@H](CC(C)C)C(=O)N(C)[C@H](CC(C)C)C(=O)N2CCC[C@H]2C(=O)N[C@@H](CC(C)C)C(=O)N[C@@H](Cc2ccccc2)C(=O)N2CCC[C@@H]2C1=O | -5.96 |
| CCCN1CC(=O)N[C@H](CC(C)C)C(=O)N(C)[C@H](CC(C)C)C(=O)N2CCC[C@@H]2C(=O)N(Cc2ccccc2)CC(=O)N[C@@H](Cc2ccccc2)C(=O)N2CCC[C@@H]2C1=O | -5.19 |
| CC(C)C[C@H]1NC(=O)C[C@H](Cc2ccccc2)NC(=O)[C@H]2CCCN2C(=O)[C@H](Cc2ccccc2)NC(=O)[C@H](CC(C)C)N(C)C(=O)[C@@H]2CCCN2C(=O)[C@H](CC(C)C)N(C)C1=O | -5.31 |
| CC(C)C[C@@H]1C(=O)N[C@@H](Cc2ccccc2)C(=O)N2CCC[C@H]2C(=O)N(C)[C@H](C)C(=O)N[C@H](CC(C)C)C(=O)N(C)[C@@H](CC(C)C)C(=O)N2CCC[C@H]2C(=O)N1C | -5.59 |
| CC(C)C[C@@H]1NC(=O)[C@H]2CCCN2C(=O)[C@@H](CC(C)C)NC(=O)[C@H](CC(C)C)NC(=O)[C@@H](C)NC(=O)[C@H]2CCCN2C(=O)[C@H](Cc2ccccc2)NC1=O | -7.85 |
| CCCN1CC(=O)N[C@H](CC(C)C)C(=O)N[C@@H](CC(C)C)C(=O)N2CCC[C@@H]2C(=O)N(C)[C@H](CC(C)C)C(=O)N[C@@H](Cc2ccccc2)C(=O)N2CCC[C@@H]2C1=O | -5.17 |
| CC(C)C[C@@H]1C(=O)N[C@@H](Cc2ccccc2)C(=O)N(C)[C@H](C)C(=O)N[C@H](CC(C)C)C(=O)N[C@@H](Cc2ccccc2)CC(=O)N2CCC[C@H]2C(=O)N1C | -5.66 |
| CC(C)C[C@@H]1NC(=O)[C@H](CC(C)C)N(C)C(=O)[C@@H](C)NC(=O)[C@H](Cc2ccccc2)NC(=O)[C@H](CC(C)C)N(C)C(=O)[C@@H]2CCCN2C1=O | -5.32 |
| CC(C)C[C@H]1NC(=O)C[C@H](Cc2ccccc2)NC(=O)[C@H]2CCCN2C(=O)[C@H](Cc2ccccc2)NC(=O)[C@@H](CC(C)C)NC(=O)[C@H]2CCCN2C(=O)C[C@H](Cc2ccccc2)NC1=O | -5.87 |

2 of these entries, quoted again:

| structure (SMILES) | PAMPA (log10 cm/s) |
|---|---|
| CC(C)C[C@@H]1NC(=O)[C@H]2CCCN2C(=O)[C@@H](CC(C)C)NC(=O)[C@H](CC(C)C)NC(=O)[C@@H](C)NC(=O)[C@H]2CCCN2C(=O)[C@H](Cc2ccccc2)NC1=O | -7.85 |
| CCCN1CC(=O)N[C@H](CC(C)C)C(=O)N(C)[C@H](CC(C)C)C(=O)N2CCC[C@@H]2C(=O)N(Cc2ccccc2)CC(=O)N[C@@H](Cc2ccccc2)C(=O)N2CCC[C@@H]2C1=O | -5.19 |